Consider 1 compound from patent US4465676A, “16α Halogen substituted 3,17β-dihydroxy steroidal estrogens” (priority 1980, dated 1984).

Protein sequences, listed by entry. Tags and fused reporters are not part of them.
UniProt P49884, whole entry: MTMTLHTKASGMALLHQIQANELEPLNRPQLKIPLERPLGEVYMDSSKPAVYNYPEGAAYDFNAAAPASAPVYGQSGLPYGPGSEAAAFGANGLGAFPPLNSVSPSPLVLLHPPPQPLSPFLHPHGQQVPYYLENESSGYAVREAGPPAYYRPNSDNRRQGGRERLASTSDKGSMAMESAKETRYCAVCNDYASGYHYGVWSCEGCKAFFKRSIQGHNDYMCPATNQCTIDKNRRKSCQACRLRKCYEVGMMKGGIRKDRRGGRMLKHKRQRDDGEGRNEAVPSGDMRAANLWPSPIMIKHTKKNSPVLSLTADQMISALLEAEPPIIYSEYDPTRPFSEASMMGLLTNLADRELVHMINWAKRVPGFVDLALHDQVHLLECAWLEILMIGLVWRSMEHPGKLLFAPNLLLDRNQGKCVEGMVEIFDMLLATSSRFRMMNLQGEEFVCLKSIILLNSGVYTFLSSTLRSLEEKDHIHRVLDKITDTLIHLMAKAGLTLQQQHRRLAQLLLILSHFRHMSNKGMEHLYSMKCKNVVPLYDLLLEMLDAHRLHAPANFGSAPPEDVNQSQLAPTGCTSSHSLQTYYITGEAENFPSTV

The target of this assay is estrogen receptor (calf uterine cytosol) (Bos taurus, UniProt P49884). The assay can be described thus: Competition for the estrogen receptor in calf uterine cytosol. The settings on record: for activity at 0.0005 µM: competitor 0.5 nM.

Read-outs that look alike come from different tables or passages of the source.

Turning to `C[C@]12CC[C@H]3[C@@H](CCC4=CC(=O)CC[C@@]43C)[C@@H]1CC[C@@H]2O` [Testosterone], the activity at 0.0005 µM runs as follows: (read-out: B/B0 × 10^2, tracer ^3 H-E2 (0.74 nM)) 97%; (read-out: B/B0 × 10^2, tracer ^125 I-E2 (0.22 nM)) 93%. Besides, the activity at 0.005 µM reads like this: (read-out: B/B0 × 10^2, tracer ^3 H-E2 (0.74 nM), competitor 5.0 nM) 95%; (read-out: B/B0 × 10^2, tracer ^125 I-E2 (0.22 nM), competitor 5 nM) 93%.
